{
  "source": "patent US20240197588A1",
  "about": "“ANTIMICROBIAL COMPOSITION” (Conopco, Inc., d/b/a UNILEVER, priority 2021, published 2024)",
  "key": {"[1]": {"assay": "Water solubility in oil (solvency of detackifying agent for water)", "details": "neat detackifying agent"}, "[2]": {"assay": "Solubility of oil (detackifying agent) in 75/25 EtOH/Water", "details": "neat detackifying agent"}},
  "data": [
    {"smiles": "CCCCC(CC)COC(=O)CCCCCCCCC(=O)OCC(CC)CCCC", "note": "(centres unmarked) [Diethyl hexyl sebacate]", "values": [
      {"measurement": "Water solubility in detackifying agent", "setting": "[1]", "result": "No"},
      {"measurement": "Solubility in 75/25 EtOH/Water", "setting": "[2]", "result": "<10", "unit": "%"}
    ]}
  ]
}
